According to patent US20080226758A1, “Lipoxygenase and Cyclooxygenase Inhibition” (priority 2006, published 2008):
pIC50: −log10 of the molar value.

Molecular target: T1, 15-LO (Oryctolagus cuniculus, UniProt P12530)
T1 construct: endogenous in cells; host or cells: rabbit reticulocytes
T1 sequence (P12530 1-663): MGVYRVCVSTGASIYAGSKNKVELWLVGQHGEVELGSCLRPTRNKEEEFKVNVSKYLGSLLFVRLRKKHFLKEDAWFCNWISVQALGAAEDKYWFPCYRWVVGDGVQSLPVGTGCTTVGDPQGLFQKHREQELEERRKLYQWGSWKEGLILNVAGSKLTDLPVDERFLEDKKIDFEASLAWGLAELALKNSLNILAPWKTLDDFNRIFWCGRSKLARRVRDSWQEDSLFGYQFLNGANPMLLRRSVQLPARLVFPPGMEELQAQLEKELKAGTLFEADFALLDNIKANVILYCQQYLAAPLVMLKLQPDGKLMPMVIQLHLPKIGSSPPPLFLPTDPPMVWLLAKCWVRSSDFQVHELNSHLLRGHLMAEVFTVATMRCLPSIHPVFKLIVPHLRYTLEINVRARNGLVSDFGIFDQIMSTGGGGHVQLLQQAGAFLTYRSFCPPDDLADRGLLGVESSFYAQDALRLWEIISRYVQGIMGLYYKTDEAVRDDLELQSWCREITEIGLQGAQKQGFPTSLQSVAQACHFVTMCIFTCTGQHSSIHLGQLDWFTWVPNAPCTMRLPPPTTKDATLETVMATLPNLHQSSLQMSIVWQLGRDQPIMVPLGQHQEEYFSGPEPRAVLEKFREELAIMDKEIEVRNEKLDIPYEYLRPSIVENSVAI
Test: 15-LO assay (13-HPODE, spectrophotometric)
Assay type: biochemical
Conditions: rabbit reticulocytes; 13-HPODE spectrophotometrically
Protocol: 5-LO and 15-LO assays: Human peripheral blood mononuclear cells (PBMC) cells and rabbits reticulocytes were used in the 5-LO and 15-LO bioassays, and the assays were conducted according to the protocols reported previously, with either linoleic acid or arachidonic acid as substrates. LO activity was measured by quantifying immunodetectable Leukotriene B4 (LTB4) specifically with enzyme immunoassay (EIA) in the 5-LO assay, or monitoring 13-hydroperoxy-9,11-octadecadienoic acid (13-HPODE) spectrophotometrically in the 15-LO assay.
The results were expressed as either percentage inhibition, or IC50, for test samples and data represent the average ±SD of at least triplicate determinations.

## c1ccc2c(c1)SCc1c-2[nH]c2ccccc12 [PD-146176, reference compound]
  pIC50: 5.95
